For one molecule, root growth results are on record in patent publication US10407691B2 (priority 2014, dated 2019).

The test system of this test is Arabidopsis seedlings. Put plainly: Arabidopsis root growth assay. It is filed as in vivo, Arabidopsis thaliana. The conditions noted are these: At1g72300 mutant line SALK_072802C, 100 nM, 8 days.

For `CC(C)[C@H](NC(=O)[C@@H](N)Cc1c[nH]cn1)C(=O)NCC(=O)NCC(=O)NCC(=O)N[C@@H](CC(=O)O)C(=O)N[C@@H](Cc1ccc(OS(=O)(=O)O)cc1)C(=O)N1CCC[C@H]1C(=O)N1CCC[C@H]1C(=O)N1CCC[C@H]1C(=O)NCC(=O)N[C@@H](C)C(=O)N[C@@H](CC(N)=O)C(=O)N1CCC[C@H]1C(=O)N[C@@H](CCCCN)C(=O)N[C@@H](Cc1c[nH]cn1)C(=O)N[C@@H](CC(=O)O)C(=O)N1CCC[C@H]1C(=O)N1CCC[C@H]1C(=O)N1CCC[C@H]1C(=O)N[C@@H](CCCNC(=N)N)C(=O)O` [RaxX21-sY, HVGGGDY^SPPPGANPKHDPPPR], the root growth entry is “increased root growth in a similar manner to that observed for treatment of wild type Col-0 seedlings”.
